Reference: article PMC10794137, “A new antibiotic traps lipopolysaccharide in its intermembrane transporter” (Nature, 2024)

The chains behind the UniProt entries cited, without tags or fusion partners. Where a name states a change or a piece, a line headed by the entry shows the natural chain unless it says otherwise.
UniProt P0ADC6: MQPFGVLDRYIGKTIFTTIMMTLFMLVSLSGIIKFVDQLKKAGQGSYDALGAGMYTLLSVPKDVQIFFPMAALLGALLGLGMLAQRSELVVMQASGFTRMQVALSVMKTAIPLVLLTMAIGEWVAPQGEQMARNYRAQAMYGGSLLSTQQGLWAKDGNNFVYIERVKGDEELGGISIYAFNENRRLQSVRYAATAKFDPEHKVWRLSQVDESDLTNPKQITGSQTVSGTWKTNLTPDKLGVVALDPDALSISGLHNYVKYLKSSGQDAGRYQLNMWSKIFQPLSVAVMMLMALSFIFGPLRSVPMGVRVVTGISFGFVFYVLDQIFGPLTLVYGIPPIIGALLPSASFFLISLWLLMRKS
UniProt P0AF98: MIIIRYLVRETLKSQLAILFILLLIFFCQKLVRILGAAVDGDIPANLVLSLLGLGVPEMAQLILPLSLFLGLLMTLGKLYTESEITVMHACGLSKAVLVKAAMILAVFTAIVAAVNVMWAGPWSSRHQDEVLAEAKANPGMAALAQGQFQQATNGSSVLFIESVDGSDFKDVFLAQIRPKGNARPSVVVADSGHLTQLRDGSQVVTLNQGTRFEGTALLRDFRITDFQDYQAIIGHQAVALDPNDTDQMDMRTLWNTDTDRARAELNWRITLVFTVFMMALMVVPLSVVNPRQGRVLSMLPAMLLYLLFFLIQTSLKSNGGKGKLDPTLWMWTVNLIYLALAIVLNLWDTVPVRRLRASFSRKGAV

Target: T1, E. coli LptB2FGC (Escherichia coli, UniProt P0ADC6+P0AF98)
T1 construct: made in house
Assay: LPS release assay, E. coli LptB2FGC
Assay type: biochemical
Conditions: purified E. coli LptB2FGC vs Acinetobacter LptB2FGC

CN1C(=O)[C@H](CCCCN)NC(=O)[C@H](CCCN)NCc2cccnc2Sc2cccc(-c3ccc(C(=O)O)cc3)c2CNC(=O)[C@@H]1Cc1c[nH]c2ccccc12 [Compound 2, Zosurabalpin]
Fold more resistant to inhibition than Acinetobacter homologue: more than 1,000 fold
